Article PMC7345279 (Antibiotics, 2020)

Test system: human plasma proteins
Test: Unbound fraction / protein binding of FLU in pooled plasma, alone and with a second drug (ultrafiltration, LC-MS/MS)
Conditions: Table 5 'FLU alone' line (no HSA named, presumably pooled plasma); FLU 0.2 µg/mL

For `Cc1onc(-c2c(F)cccc2Cl)c1C(=O)N[C@@H]1C(=O)N2[C@@H]1SC(C)(C)[C@@H]2C(=O)O` [FLU, Flucloxacillin], the “% Unb” value was 0.84%, the “Total Conc” value was 0.25 µg/mL and the “Unb Conc” value was 0.002 µg/mL.
